Measurements from ChEMBL document CHEMBL2321866 (J Med Chem, 2013).

Sequences of proteins named here, by UniProt entry; tags and fusion partners are left off.
UniProt P21554, whole entry: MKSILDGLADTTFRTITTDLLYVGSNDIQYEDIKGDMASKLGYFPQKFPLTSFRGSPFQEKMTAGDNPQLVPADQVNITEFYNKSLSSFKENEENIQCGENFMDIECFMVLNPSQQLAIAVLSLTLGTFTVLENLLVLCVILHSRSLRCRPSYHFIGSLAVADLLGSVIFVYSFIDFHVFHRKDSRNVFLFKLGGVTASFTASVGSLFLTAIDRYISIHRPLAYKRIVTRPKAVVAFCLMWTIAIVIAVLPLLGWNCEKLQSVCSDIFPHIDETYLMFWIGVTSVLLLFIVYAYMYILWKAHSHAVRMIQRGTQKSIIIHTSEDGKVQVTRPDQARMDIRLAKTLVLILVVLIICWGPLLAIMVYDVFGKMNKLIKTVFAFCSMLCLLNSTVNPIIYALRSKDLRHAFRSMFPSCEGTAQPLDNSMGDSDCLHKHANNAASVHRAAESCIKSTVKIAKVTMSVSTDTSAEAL

Columns and labels:
Homo sapiens = species on record: Homo sapiens; test: Selectivity index, ratio of Ki for CB1 receptor (unknown origin) to Ki for CB2 receptor (unknown origin)
Cannabinoid receptor 1 = Cannabinoid receptor 1 (Homo sapiens, UniProt P21554)

Structure (SMILES)	Ratio Ki (Homo sapiens)	Ki (Cannabinoid receptor 1)
CCN(CC)c1ccc(CN([C@]23C[C@H]4C[C@H](C[C@H](C4)C2)C3)S(=O)(=O)c2cccc(C)c2)cc1	432	
CCN(CC)c1ccc(CN([C@]23C[C@H]4C[C@H](C[C@H](C4)C2)C3)S(=O)(=O)c2ccc(F)cc2)cc1	170	
CCN(CC)c1ccc(CN([C@]23C[C@H]4C[C@H](C[C@H](C4)C2)C3)S(=O)(=O)c2ccc(OC)cc2)cc1		7.3 µM
CCN(CC)c1ccc(CN(c2ccc(C)cc2)S(=O)(=O)c2ccc(C)cc2)cc1	80	
